Test results from article PMC10848371.

Legend:
[1] = confocal IF with organelle markers, COS-1/293T, 18 h; settings: glycan lost; control: GFP-gPD-1 WT
[2] = protein stability, Fig. S3H-I (method not described in text); settings: glycan lost; control: GFP-WT-gPD-1
[3] = sucrose gradient fractionation and immunoblot, Jurkat T cells; settings: glycan lost; control: GFP-gPD-1 WT

B1: PD-1 (programmed cell death protein 1): 3NQ (protein)
parent chain: MQIPQAPWPVVWAVLQLGWRPGWFLDSPDRPWNPPTFSPALLVVTEGDNATFTCSFSNTSESFVLNWYRMSPSNQTDKLAAFPEDRSQPGQDCRFRVTQLPNGRDFHMSVVRARRNDSGTYLCGAISLAPKAQIKESLRAELRVTERRAEVPTAHPSPSPRPAGQFQTLVVGVVGGLLGSLVLLVWVLAVICSRAARGTIGARRTGQPLKEDPSAVPVFSVDYGELDFQWREKTPEPPVPCVPEQTEYATIVFPSGMGTSSPARRGSADGPRSAQPLRPEDGHCSWPL
decreases: localisation_or_trafficking [1] | degradation_or_half_life [2] | localisation_or_trafficking [3]
